This series relates to Mortierella elongata AG77. Nature of the series: Carbon source utilisation in Biolog 96-well plates, formazan formation after tetrazolium addition. It is filed as cell-based. The conditions noted are these: compound as carbon source; Toxic = less formazan formation than a control containing no carbon source. The protocol: Two 300 mL volumes of growth medium comprising 1 g/L KH2PO4, 1 g/L MgSO4 7H2O, 0.1 g/L CaCl2, 0.02 g/L FeNaEDTA, 0.1 g/L NaCl, and either 1 g/L NH4NO3 or 20 g/L sucrose were prepared. Acidity was adjusted to 5.5 using NaOH and volumes of growth medium were autoclaved 30 min at 121° C. to sterilize. Aliquots of 200 μL of carbon-free medium or nitrogen-free medium were pipetted into each well of a set of 96-well plates previously prepared with lyophilized putative carbon or nitrogen sources (Biolog Inc., Hayward, Calif.). Inocula were prepared by perforating a culture of Mortierella elongata AG77 grown on 20 g/L potato dextrose agar with a 3 mm diameter cork borer and separating the surface mycelial mat from the solid growth medium using tweezers. Each well was inoculated with one inoculum. Cultures were incubated at 21° C. for 24 hours to allow metabolic changes to stabilize, and then 100 μL of 3 g/L tetrazolium chloride in water was added to each well. Formazan formation was observed visually at 2 h, 24 h, and 148 h.
Conclusions were based on rate and intensity of formazan formation using the 3-4,5-dimethylthiazol-2-yl)-2,5-diphenyltetrazolium bromide (MTT) assay. “Metabolized” indicates more formazan formation than a control containing no carbon source, and “Toxic” indicates less formazan formation than a control containing no carbon source. […]

As to Gentiobiose, the Toxic result is given as “no”.

The values above are taken from US20200325505A1, “FILAMENTOUS FUNGI CAPABLE OF PRODUCING VERY LONG CHAIN FATTY ACIDS” (UT-Battelle, LLC, priority 2019, published 2020).
